Columns and labels:
[1] = system: Ascites hepatoma LY80; test: Survival time of rats implanted with LY80 tumor, with or without 20 Gy X-rays (Experimental Example 1); assay type: in vivo, Donryu rat; conditions: administration + 20 Gy X-rays; 10 mL/kg into common iliac artery, 6 days after implantation; logrank test
Experimental: (§1) Method: Tumor cells (Ascites hepatoma LY80) that had been subcultured in the abdominal cavity of a Donryu rat were implanted subfascially at the right thigh of the same strain rat in an amount of about 1.0×10^6 cells. Six days after the tumor implantation, (1)5% (w/v %, hereinafter abbreviated as %) rHSA solution, (2) rHSA-FecycP solution, (3)a solution of saccharated ferric oxide, or (4)a solution of chondroitin sulfate/iron colloid was administered to the common iliac artery of the rats at a concentration of 10 mL/kg (6 rats per group for (1) to (3), and 3 rats per group for (4)). Note that the solution of rHSA-FecycP, the solution of saccharated ferric oxide, and the solution of chondroitin sulfate/iron colloid each were prepared to have a concentration of 3 mM as iron. After the administration, 20 Gy of X-rays were immediately irradiated to each tumor-implanted site. Meanwhile, for comparison, a non-treatment group and an rHSA-FecycP administration group both to which X-rays were not irradiated were provided (6 rats per group).
The day of the tumor implantation was defined as day 0, and the life and death were observed up to 60 days after the implantation. The survival time of each group is shown by a box-and-whisker plot, and the logrank test (significance level of 5%) was performed as a significance test. […]

[2] = system: Ascites hepatoma LY80; test: Tumor weight (growth delay) in rats implanted with LY80 tumor, with or without 20 Gy X-rays (Experimental Example 1); assay type: in vivo, Donryu rat; conditions: administration + 20 Gy X-rays; Tukey-Kramer test
Experimental: as §1, with “group). […]” for “group).”
Meanwhile, the major axes and minor axes of each tumor were measured on 6, 7, 9, 12, 15, 20, 25, 32, 39, 46, 53, and 60 days after the tumor implantation, and the tumor weights were calculated according to the following equation. […]

Substance: rHSA: recombinant human serum albumin (25% preparation, produced by Bipha Co., Ltd.), used as 5% control solution
- survival time compared to the irradiation group [1]: not extended
- tumor weight compared to the irradiation groups [2]: no difference
